Screens from PubChem BioAssay.
Most compounds without a hit are left out; they make up all but 1.9% or so of the library.
UUG fidelity – modulators of yeast start codon fidelity, primary screen, whole organism, S. cerevisiae, single point, plate reader | AID 602363, 2012 | actives 0.13% (n = 350,000) | activity score, % at 18.7 µM | S. cerevisiae UUG-firefly luciferase reporter, luminescence/redox ratio;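 active means replicate mean at a twofold rise or more, about +100% in these data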;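 further: firefly luciferase made from a UUG start codon reports start codon fidelity; reporter light over untreated wells divided by growth signal over untreated wells; some hits fall short of that in this replicate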
PDI inh – PDI (human) enzyme inhibition; inhibition, % at 10 µM; actives 0.052% (n = 350,000); P07237; PDI insulin aggregation turbidity, A650, 90 min;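 active means mean inhibition across replicates of 30% or more, whatever share of single replicates reach that level; inconclusive means mean inhibition below 30% while every single replicate reaches 30%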
ERp5 block – blocks human ERp5 reductase activity on insulin; Q15084; ERp5 insulin aggregation, absorbance 650 nm, 90 min; inhibition, % at 9.99 µM; actives 0.05% (n = 350,000); AID 651711;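 active means mean replicate inhibition above about 25%, with every replicate also reaching it, limit read from the data, passing the limit was not always enough; inconclusive means only one of those two criteria met; inactive means neither criterion met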
FGF22 binding – FGF22 (human) thermal shift binding; activity (Tm shift, normalised), % at 9.99 µM; AID 651658; Q9HCT0; recombinant FGF22 thermal shift, SYPRO orange fluorescence; percent of sucrose octasulfate shift, DMSO zero; actives 1.5% (n = 340,000);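 active means mean Tm shift, scaled 0 neutral to 100 positive control, at about 1.3% or above, every replicate too, limit read from the data; inconclusive means no clear call, values can overlap the other calls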
PglD inh – PglD (C. jejuni) enzyme inhibition; inhibition, % at 12.5 µM; actives 0.098% (n = 360,000); purified PglD enzyme, DTNB colorimetric CoA detection; in the data active means inhibition above about 16%, passing the limit was not always enough; inconclusive means no clear call, values can overlap the other calls
ARNT-TACC3 inh – disruptors of human ARNT/TACC3 interaction. inhibition, % at 9.99 µM. actives 0.66% (n = 390,000). Q9Y6A5. AID 623870. AlphaScreen His-ARNT PAS-B/GST-TACC3 binding, luminescence; TACC3 fragment carries E629A point mutation;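 active means mean inhibition of replicates at least 50% and at least half of replicates each reaching 50%; inconclusive means half or more replicates reach 50% but mean below 50%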;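 further: 0% = complete ARNT plus TACC3 wells and 100% = ARNT alone without TACC3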
PglD confirm – blocks Campylobacter jejuni PglD acetyltransferase activity | inhibition, % at 20 µM | 320 tested, under 10 active | shares compounds with PglD inh | Purified C. jejuni PglD, DTNB absorbance 412 nm;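 active means mean inhibition across replicates of at least 20% with every single replicate also at 20% or more; inconclusive means mean inhibition at least 20% but some replicate falls below 20%; inactive means mean inhibition under 20% and not all replicates reach it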;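 further: initial rate of CoA release by acetyl transfer from AcCoA to the UDP-4-amino sugar; 0% = median of neutral control wells and 100% = median of positive control wells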
* = called active by the depositor; ? = inconclusive; . = not tested or not shown.

SMILES | UUG fidelity | PDI inh | ERp5 block | FGF22 binding | PglD inh | ARNT-TACC3 inh | PglD confirm
C[C@@H]1CN([C@@H](C)CO)C(=O)c2cc(NC(=O)Cn3cnnn3)ccc2O[C@@H]1CN(C)C(=O)NC1CCCCC1 | 2.9 | . | -5.3 | 0.5 | -0.4 | -2.1 | .
O=C(CCCOc1ccccc1)Nc1cccc(S(=O)(=O)N2CCOCC2)c1 | -5.8 | -18.3 | -1.6 | 0.3 | 20.8* | -2.0 | -3.8
CC(=O)c1ccc(OCCCC(=O)Nc2cccc(S(=O)(=O)N3CCOCC3)c2)cc1 | -17.0 | 8.8 | 2.4 | 0.0 | -7.1 | -4.2 | .
O=C(NCCC1=CCCCC1)c1cnsn1 | -0.1 | -11.1 | . | . | 42.2* | -5.1 | -1.3
CCOC(=O)C1CCCN(C2CC(=O)N(c3ccc(N4C(=O)CC(N5CCCC(C(=O)OCC)C5)C4=O)cc3)C2=O)C1 (centres undefined) | 5.3 | 5.0 | . | . | -16.3 | -7.8 | .
CCOC(=O)C1CCCN(C2CC(=O)N(c3ccccc3)C2=O)C1 (centres undefined) | -22.4 | -2.6 | 4.7 | 0.4 | 27.2* | -4.9 | -3.0
CCCNC(=O)N1[C@H](C#N)[C@H](c2ccccc2-c2ccccc2)[C@@H]1CO | . | . | -0.1 | -0.1 | . | . | .
COc1ccc(CSc2nc(O)cc(=O)n2CC(C)C)cc1F | -3.3 | -5.7 | 0.0 | -0.5 | 20.7* | -3.0 | 2.4
CO[C@@H]1CN(C)C(=O)c2ccc(NC(=O)C3CC3)cc2OC[C@@H](C)N(CC2CCCC2)C[C@H]1C | . | . | -4.9 | . | . | . | .
COc1ccccc1-c1nnc(SCc2ccccn2)n1C | -24.3 | 10.9 | . | . | 62.0* | -4.8 | -3.3
COc1ccccc1-c1nnc(SCC(=O)Nc2cccnc2Cl)n1C | -15.1 | 4.3 | -7.0 | 0.1 | -2.3 | . | .
COCc1nc2ccccc2n1CCOc1ccccc1OC | -1.9 | 5.4 | . | . | 24.3* | 9.5 | -0.6
COc1ccc(NC(=O)N(C)C[C@H]2Oc3c(cccc3N(C)C)C(=O)N([C@H](C)CO)C[C@@H]2C)cc1 | -2.9 | . | 1.0 | 0.2 | 3.2 | 5.9 | .
CCC(=O)N1[C@H](C(=O)N2CCCCC2)[C@@H](CO)[C@@H]2Cn3c(ccc(-c4cccc(F)c4)c3=O)[C@@H]21 | . | . | -3.4 | . | . | . | .
O=C(Oc1coc(CSc2nnc(NC(=O)C3CC3)s2)cc1=O)c1c(F)cccc1F | -12.7 | -1.2 | 6.2 | 0.1 | 63.4* | -3.0 | 4.0
COc1ccc(NC(=O)Nc2ccc3c(c2)C(=O)N([C@@H](C)CO)C[C@H](C)[C@H](CN(C)S(=O)(=O)c2ccc(C)cc2)OCCCC[C@@H](C)O3)cc1 | -10.0 | . | -3.6 | -0.2 | -7.1 | 7.5 | .
O=C(OCC(=O)N1CCCc2ccccc21)c1cnc(Cl)c(Cl)c1 | . | 1.3 | -2.1 | 0.1 | . | -3.6 | .
O=C(OCC(=O)N1CCCC1)c1cnc(Cl)c(Cl)c1 | -9.0 | 4.6 | 3.5 | . | 25.2* | 7.7 | -10.5
Cc1ccc(CN2[C@@H]3c4ccccc4C[C@@H]3OCCS2(=O)=O)cc1 | -7.7 | 0.1 | 0.4 | 0.7 | 1.8 | -4.4 | .
O=S1(=O)CCO[C@H]2Cc3ccccc3[C@H]2N1Cc1ccc(F)cc1 | 14.7 | 0.5 | -3.4 | 0.1 | 27.4* | 5.0 | -6.1
CCn1c(SCc2nc3sc(C(=O)O)c(C)c3c(=O)[nH]2)nc2ccccc21 | -8.9 | -22.5 | . | . | 27.6* | 0.6 | 47.3*
COCCn1c(SCc2nc3sc(C(=O)OC)c(C)c3c(=O)[nH]2)nc2ccccc21 | -11.5 | 0.4 | . | . | 2.7 | -10.4 | .
C[C@H](NC(=O)C[C@H]1CC[C@H](NC(=O)C2CC2)[C@H](CO)O1)c1ccccc1 | -4.8 | . | 1.4 | 0.2 | 14.6 | -13.3 | .
CO[C@H]1CN(C)C(=O)c2ccc(NC(=O)Nc3ccccc3)cc2OC[C@@H](C)N(C(=O)CN(C)C)C[C@H]1C | -1.7 | . | 0.4 | -0.1 | 1.8 | 14.4 | .
O=C1C2C3c4ccccc4C(c4ccccc43)C2C(=O)N1Cc1ccco1 (centres undefined) | -9.9 | 11.1 | . | . | 23.6* | 3.0 | -5.0
O=C(O)/C(=C\c1ccc(Br)cc1)NC(=O)c1cccs1 | -21.5 | 2.0 | 4.9 | -0.2 | 25.1* | -3.7 | 1.9
O=C(N/C(=C/c1ccc(Br)cc1)C(=O)N1CCCC1)c1cccs1 | . | 4.3 | 1.4 | 0.2 | . | 3.9 | .
Cn1cnnc1SCC(C)(C)NS(=O)(=O)c1ccc(Cl)cc1 | -9.5 | -0.2 | -4.1 | -0.3 | 28.9* | 2.1 | ?
COc1ccc([N+](=O)[O-])cc1NC(=O)CCN1CCOCC1 | -1.4 | 3.0 | -1.6 | -0.1 | 20.8* | -3.1 | -3.7
C=C(C)Cn1c2ccc(NC(=O)NCC)cc2c(=O)n1C | -8.0 | 1.7 | 6.6 | 0.4 | -5.2 | . | .

Some of these compounds in order of count of non-hydrogen atoms, smallest number first:
SMILES | UUG fidelity | PDI inh | ERp5 block | FGF22 binding | PglD inh | ARNT-TACC3 inh | PglD confirm
C=C(C)Cn1c2ccc(NC(=O)NCC)cc2c(=O)n1C | -8.0 | 1.7 | 6.6 | 0.4 | -5.2 | . | .
O=C1C2C3c4ccccc4C(c4ccccc43)C2C(=O)N1Cc1ccco1 (centres undefined) | -9.9 | 11.1 | . | . | 23.6* | 3.0 | -5.0
COCCn1c(SCc2nc3sc(C(=O)OC)c(C)c3c(=O)[nH]2)nc2ccccc21 | -11.5 | 0.4 | . | . | 2.7 | -10.4 | .

(continued)
SMILES | UUG fidelity | PDI inh | ERp5 block | FGF22 binding | PglD inh | ARNT-TACC3 inh | PglD confirm
C=C(C)Cn1c2ccc(NC(=O)NCc3ccccc3)cc2c(=O)n1C | -3.9 | 7.6 | 4.8 | 0.5 | 20.4* | . | -6.7
COc1ccc(C2CC(c3ccccc3)=NN2C(=O)COC(=O)/C=C/c2ccc(O)c(OC)c2)cc1 (centres undefined) | -1.0 | -0.1 | 1.5 | 0.1 | 34.3* | -4.4 | 6.8
COc1ccc(C2CC(c3ccccc3)=NN2C(=O)COC(=O)CNC(=O)c2ccccc2)cc1 (centres undefined) | 20.6 | 11.9 | 1.0 | -0.3 | -4.4 | -4.8 | .
CC=Cc1ccc2n(c1=O)C[C@@H]1[C@@H](CO)[C@H](C(=O)NCCc3cn(C)cn3)[C@H]2N1C(=O)CC1CC1 (mixture of isomers) | . | . | 2.0 | . | . | . | .
C[C@@H]1CCCCO[C@@H](CN(C)C(=O)c2ccccc2)[C@H](C)CN([C@H](C)CO)C(=O)c2cc(NS(=O)(=O)c3cccs3)ccc2O1 | 3.4 | . | -4.6 | 0.1 | 0.0 | -0.8 | .
O=C(O)CSc1cc(C(=O)c2ccccc2O)cn2c(=O)c3c4c(sc3nc12)CCCC4 | -13.6 | 22.2 | 8.0 | -0.1 | 21.7* | -4.8 | 1.5
CCC(=O)N1CC(=O)N2[C@H](CO)[C@@H](c3ccc(C#Cc4cccc(OC)c4)cc3)[C@@H]2C1 | . | . | -4.8 | . | . | . | .
CCC(C)(C)NC(=O)Cc1ccc(C)cc1 | -8.8 | -14.4 | . | . | 47.6* | -2.8 | -2.1
CCCCNC(=O)Cc1ccc(C)cc1 | . | 7.3 | 0.2 | -0.1 | . | -5.5 | .
O=C1CSCN1c1ccc(Cl)cc1 | -2.3 | -3.4 | 1.3 | -0.1 | 83.1* | -5.2 | 9.5
COc1cc(/C=N\NC(=O)c2ccc(C)nc2)ccc1OC(=O)c1cccc(F)c1 | -9.9 | -13.5 | -3.1 | -0.4 | 28.6* | 5.4 | -7.4
CC(=O)N1[C@H](CN(C(=O)c2ccc(F)cc2)C(C)C)[C@@H](c2ccccc2)[C@@H]1CO | -2.0 | . | . | . | -3.2 | -0.4 | .
CO[C@H]1CN(C)C(=O)c2ccc(NS(C)(=O)=O)cc2OC[C@H](C)N(C)C[C@H]1C | 2.7 | . | -1.2 | -0.5 | 3.5 | -1.6 | .
COC(=O)C1CSC(C(=O)OC)N1C(=O)CN1CCN(c2ccc(OC)cc2)CC1 (centres undefined) | -24.9 | 11.6 | 6.0 | 0.1 | 59.1* | -11.1 | 2.8

Retrieved one by one from the entries so far (two):
SMILES | UUG fidelity | PDI inh | ERp5 block | FGF22 binding | PglD inh | ARNT-TACC3 inh | PglD confirm
COC(=O)C1CSC(C(=O)OC)N1C(=O)CN1CCN(c2ccc(OC)cc2)CC1 (centres undefined) | -24.9 | 11.6 | 6.0 | 0.1 | 59.1* | -11.1 | 2.8
CC(=O)N1[C@H](CN(C(=O)c2ccc(F)cc2)C(C)C)[C@@H](c2ccccc2)[C@@H]1CO | -2.0 | . | . | . | -3.2 | -0.4 | .
